We go through 1 molecule from ChEMBL document CHEMBL2034847, “Discovery of Plasmodium vivax N-myristoyltransferase inhibitors: screening, synthesis, and structural characterization of their binding mode” (J Med Chem, 2012).

A short description of the assay: Inhibition of Plasmodium vivax recombinant N-myristoyltransferase using human pp60Src92-16 amino acids) as substrate. Particulars: read-out: Ki(app). In a few lines: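 Recombinant P. vivax NMT in a 96-well fluorogenic NMT assay. Values are reported as apparent Ki, mean ± SD from duplicates.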

Take `CCCCc1c(C)nc2ccc(OC)cc2c1SCCC#N`: the Ki came to 1730 nM.
